Consider 1 molecule from ChEMBL document CHEMBL3734721 (J Med Chem, 2015).

Sequences of proteins named here, by UniProt entry; tags and fusion partners are left off.
UniProt P28222, whole entry: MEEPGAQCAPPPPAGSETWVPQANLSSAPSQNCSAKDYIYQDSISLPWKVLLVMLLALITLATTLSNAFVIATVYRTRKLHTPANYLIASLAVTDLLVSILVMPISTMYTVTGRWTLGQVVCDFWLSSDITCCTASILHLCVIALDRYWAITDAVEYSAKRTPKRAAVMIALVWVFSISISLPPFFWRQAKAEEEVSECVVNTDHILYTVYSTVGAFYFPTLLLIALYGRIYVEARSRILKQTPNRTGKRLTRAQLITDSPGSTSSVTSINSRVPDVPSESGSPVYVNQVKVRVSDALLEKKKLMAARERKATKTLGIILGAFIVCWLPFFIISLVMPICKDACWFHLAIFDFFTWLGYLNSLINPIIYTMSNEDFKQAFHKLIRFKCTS

Assay [1] deals with T1, 5-hydroxytryptamine receptor 1B (Homo sapiens, UniProt P28222). Briefly: Agonist activity at human 5-HT1B receptor expressed in CHO-K1 cells assessed as cAMP level by HTRF assay. In kind it is functional, cell-based. In general terms: cAMP levels reflect the balance of adenylyl cyclase and phosphodiesterase activity.
The target in assay [2] is T1, 5-hydroxytryptamine receptor 1B. Briefly: Antagonist activity at human 5-HT1B receptor expressed in CHO-K1 cells assessed as seretonin-induced cAMP level by HTRF assay. The class given is functional, cell-based.

For the molecule `CC(C)NCC(O)COc1cccc2ccccc12` (configuration not stated) [PROPRANOLOL], the EC50 (usually the concentration giving half of the maximal effect) in assay [1] is more than 5.01 µM. Moreover, in assay [2], the IC50 – broadly, the concentration that inhibits the measured activity by half – is more than 5.01 µM.
